# Laboratory results published in PubChem BioAssay AID1479 (National Center for Advancing Translational Sciences (NCATS), 2009).
# Values joined by “and” are separate entries in the source; they are usually repeats but may differ in a detail not shown here. Equal values may be shown once. Only a part is listed here, and it is no random draw. Active and inactive are the calls of the source. The call rests on the fitted dose curve; in most records, active means well fitted curve in either direction with a large enough effect; inconclusive means small, poorly fitted or top-dose-only effect; inactive means flat fitted curve, though single readings scatter.
# Assay: Total Fluorescence Counterscreen for Inhibitors of the Interaction of Thyroid Hormone Receptor and Steroid Receptor Coregulator 2
# Settings: TRb/SRC2 Texas Red total fluorescence interference
# On the % scale 0 is the no-effect control and ±100 the full control effect.
SMILES,"fluorescence change, negative = quenching (at 106 µM (top of the series))","fluorescence change, negative = quenching (at 201 µM (top of the series))"
O=[N+]([O-])C(Cl)(Cl)Cl,inactive: 0.761%,inactive: 0.0105%
CN(CCCl)CCCl,inactive: -2.44% and inactive: -0.769%,
